Consider 1 compound from US10954221B2, “GLP-1R agonists and uses thereof” (QILU REGOR THERAPEUTICS INC., priority 2019, dated 2021).

Amino acid sequences for entries named in this document (tags omitted). Residues count along the entry.
UniProt P43220, 24-463 limits assumed: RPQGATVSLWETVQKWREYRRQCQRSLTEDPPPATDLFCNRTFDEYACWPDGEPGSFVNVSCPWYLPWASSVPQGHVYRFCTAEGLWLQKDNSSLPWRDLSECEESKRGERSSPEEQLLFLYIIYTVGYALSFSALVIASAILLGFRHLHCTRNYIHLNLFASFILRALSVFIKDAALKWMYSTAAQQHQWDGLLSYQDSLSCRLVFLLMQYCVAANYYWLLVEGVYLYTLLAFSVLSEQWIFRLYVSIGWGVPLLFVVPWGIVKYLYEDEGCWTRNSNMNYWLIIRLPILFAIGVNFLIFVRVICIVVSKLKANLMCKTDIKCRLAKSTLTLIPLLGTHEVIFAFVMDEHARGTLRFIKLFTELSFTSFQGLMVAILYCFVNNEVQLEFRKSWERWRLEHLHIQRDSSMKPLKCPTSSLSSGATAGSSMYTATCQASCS

As a reminder, the EC50 is the concentration needed to bring the measured effect to its halfway point. Read a high EC50 as a need for much substance.

The experiment deals with GLP1R (Homo sapiens, UniProt P43220). Description: GLP1R cAMP assay (HTRF), HEK293/GLP-1R/CRE/Luc, Clone 4. The conditions noted are these: HEK293T cells (Table 1), concentration giving 50% of the compound's own maximum cAMP level. A general note: Cyclic AMP is a second messenger, typically raised through Gs and lowered through Gi signalling.

In turn, `N#Cc1ccc(COc2cccc(-c3ccc(Oc4nc5ccc(C(=O)O)cc5n4C[C@@H]4CCO4)c(F)c3)n2)c(F)c1` displayed an EC50 of 15 to 150 nM.
